Earlier results in article PMC12206923.

Sequences of proteins named here, by UniProt entry; tags and fusion partners are left off. Residues count along the entry.
UniProt P01589, 22-240, chain 1 of 3: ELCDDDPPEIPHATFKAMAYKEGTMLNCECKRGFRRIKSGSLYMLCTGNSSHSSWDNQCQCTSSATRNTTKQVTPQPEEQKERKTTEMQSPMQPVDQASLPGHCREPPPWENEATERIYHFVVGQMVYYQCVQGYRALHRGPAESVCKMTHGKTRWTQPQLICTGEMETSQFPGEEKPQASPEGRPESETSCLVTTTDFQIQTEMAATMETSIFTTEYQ
UniProt P60568, 21-153: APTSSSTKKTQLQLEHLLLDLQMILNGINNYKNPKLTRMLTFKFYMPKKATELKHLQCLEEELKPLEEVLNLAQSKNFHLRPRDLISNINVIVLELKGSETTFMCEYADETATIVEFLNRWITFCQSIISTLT

Biological target: trimeric IL-2 receptor (Homo sapiens) (UniProt P01589)

Question: Which Kd does the source give for IL-2 (from UniProt P60568) here?
Answer: 0.01 nM
